Laboratory results as given in ChEMBL document CHEMBL4428055 (J Med Chem, 2016).
Activity calls are given as the source filed them. The rule behind the calls is not given here.

Legend:
[1] = target: T1, Aldo-keto reductase family 1 member C2 (Homo sapiens) (UniProt P52895); experiment: Inhibition of human recombinant AKR1C2-mediated reduction of [3H]5alpha-DHT
T1 sequence (whole entry): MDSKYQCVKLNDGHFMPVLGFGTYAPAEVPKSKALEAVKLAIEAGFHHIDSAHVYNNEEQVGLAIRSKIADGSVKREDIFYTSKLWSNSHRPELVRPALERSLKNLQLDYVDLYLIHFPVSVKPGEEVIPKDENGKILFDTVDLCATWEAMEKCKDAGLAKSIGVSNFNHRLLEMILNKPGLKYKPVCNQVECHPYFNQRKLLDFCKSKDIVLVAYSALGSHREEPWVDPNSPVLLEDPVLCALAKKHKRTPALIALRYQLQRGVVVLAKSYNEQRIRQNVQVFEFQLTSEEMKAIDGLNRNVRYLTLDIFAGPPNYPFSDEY

[2] = target: T1, Aldo-keto reductase family 1 member C2 (Homo sapiens); experiment: Inhibition of human recombinant AKR1C2-mediated reduction of [3H]5alpha-DHT at <100 uM

## CC[C@H](C(=O)O)c1ccc2cc(OC)ccc2c1
[1]
  inhibition: Dose-dependent effect

## CC[C@@H](C(=O)O)c1ccc2cc(OC)ccc2c1
[2]
  inhibition: inactive
